These results are taken from PubChem BioAssay AID630 (Emory University Molecular Libraries Screening Center, 2007).

Protein sequences, listed by entry. Tags and fused reporters are not part of them.
UniProt P84022, whole entry: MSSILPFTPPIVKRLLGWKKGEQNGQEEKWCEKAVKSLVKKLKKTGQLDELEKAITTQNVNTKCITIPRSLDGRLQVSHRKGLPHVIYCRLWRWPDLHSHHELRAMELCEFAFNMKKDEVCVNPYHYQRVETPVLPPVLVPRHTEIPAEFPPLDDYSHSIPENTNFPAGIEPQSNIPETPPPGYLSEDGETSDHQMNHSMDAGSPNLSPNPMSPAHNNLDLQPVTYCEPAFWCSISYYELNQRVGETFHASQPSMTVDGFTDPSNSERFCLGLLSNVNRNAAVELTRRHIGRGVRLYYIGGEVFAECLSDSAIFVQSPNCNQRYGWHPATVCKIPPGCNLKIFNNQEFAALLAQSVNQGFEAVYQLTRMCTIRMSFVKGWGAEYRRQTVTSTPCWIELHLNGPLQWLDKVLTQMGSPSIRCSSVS

This is a selection; strong and weak results do not stand in their true shares. Calls of active or inactive are those of the source.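 How the source made its calls: active means compounds that reduce the energy-transfer binding signal between the protein and its labelled peptide by more than half; inactive means the rest.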

For this assay, the target named is Mothers against decapentaplegic homolog 3 (Homo sapiens) (UniProt P84022). Description: blockers of Smad3 binding to FoxH1 – biochemical, TR-FRET, primary screen (AID 630).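 Further: 0% = Smad3 plus labelled peptide maximal FRET and 100% = peptide-only background.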 To be noted: TR-FRET Smad3/Dy647-FoxH1 peptide binding, europium anti-His; at 25 µM; hits give high values.
Broadly, the inhibition is the drop in the measured response relative to a control, in per cent. Regarding `N/C(=N\O)c1c(N)no[n+]1[O-]`, the inhibition was inactive: 0.92%. As to `c1ccc(CN2CCC(Nc3ccccc3)CC2)cc1`, the inhibition was inactive: -0.68%. For `Fc1ccccc1NC1CCN(Cc2ccccc2)CC1`, the inhibition was inactive: -3.43%. The result for `CCOc1ncccc1C(=O)NCC1(N2CCOCC2)CCCCC1` reads inactive: -6.32%. For `O=C(O)C1(Nc2ccccc2)CCN(Cc2ccccc2)CC1`, the inhibition was inactive: 9.79%. For `CCC(CO)(C(=O)OC1CN2CCC1CC2)c1ccccc1` (stereo unspecified), the inhibition is inactive: 1.76%. The value for `O=C(NCC1(N2CCOCC2)CCCCC1)c1cc2ccccc2o1` was inactive: 1.09%; that for `O=C(OC1CN2CCC1CC2)C1c2ccccc2Oc2ccccc21` (stereo unspecified) was inactive: -0.32%; that for `N#CC1(Nc2ccccc2)CCN(CCc2ccccc2)CC1` was inactive: 0.75%. The value for `O=C(NCC1(N2CCOCC2)CCCCC1)c1cc(=O)[nH]c2ccccc12` was inactive: 6.71%. The result for `NC1CCCCC1.NP(=O)(O)N(CCCl)CCCl` reads inactive: 14.4%.
